The target of this test is Plasminogen (Homo sapiens, UniProt P00747). Put plainly: In vitro Enzyme Inhibitory activity measured against Plasmin.

The chains behind the UniProt entries cited, without tags or fusion partners. Residues count along the entry.
UniProt P00747, 97-580 limits assumed: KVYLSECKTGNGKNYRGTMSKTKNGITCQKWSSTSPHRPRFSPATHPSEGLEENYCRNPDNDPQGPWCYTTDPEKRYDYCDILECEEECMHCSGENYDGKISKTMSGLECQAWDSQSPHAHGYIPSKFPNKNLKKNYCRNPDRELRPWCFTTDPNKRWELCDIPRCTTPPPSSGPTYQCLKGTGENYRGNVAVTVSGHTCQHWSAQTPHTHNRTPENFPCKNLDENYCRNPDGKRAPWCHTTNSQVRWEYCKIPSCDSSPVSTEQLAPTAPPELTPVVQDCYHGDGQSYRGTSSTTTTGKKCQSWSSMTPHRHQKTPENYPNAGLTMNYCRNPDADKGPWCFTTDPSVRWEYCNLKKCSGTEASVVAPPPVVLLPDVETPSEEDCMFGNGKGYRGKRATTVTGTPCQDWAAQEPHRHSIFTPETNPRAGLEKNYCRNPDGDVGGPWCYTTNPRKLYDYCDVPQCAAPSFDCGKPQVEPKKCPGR
UniProt P00747, 581-810 limits assumed: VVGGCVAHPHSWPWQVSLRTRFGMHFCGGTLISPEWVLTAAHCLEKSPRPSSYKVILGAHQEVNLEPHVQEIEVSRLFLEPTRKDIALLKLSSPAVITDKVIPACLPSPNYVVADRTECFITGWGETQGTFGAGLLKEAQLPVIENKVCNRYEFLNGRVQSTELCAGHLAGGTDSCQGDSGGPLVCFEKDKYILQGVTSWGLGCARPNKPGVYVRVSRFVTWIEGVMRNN

Structures are written as SMILES.

As to `N=C(N)NCCC[C@@H](C=O)NC(=O)[C@@H]1CCCN1C(=O)[C@@H]1Cc2ccccc2CN1`, half-maximal inhibition (IC50) required 1500 nM.

The record behind these values is ChEMBL document CHEMBL1128179, “Structure-activity study of tripeptide thrombin inhibitors using alpha-alkyl amino acids and other conformationally constrained amino acid substitutions” (J Med Chem, 1995).
